The source of these data is US5487990A (The General Hospital Corporation, priority 1992, dated 1996).

The chains behind the UniProt entries cited, without tags or fusion partners.
UniProt P32316, whole entry: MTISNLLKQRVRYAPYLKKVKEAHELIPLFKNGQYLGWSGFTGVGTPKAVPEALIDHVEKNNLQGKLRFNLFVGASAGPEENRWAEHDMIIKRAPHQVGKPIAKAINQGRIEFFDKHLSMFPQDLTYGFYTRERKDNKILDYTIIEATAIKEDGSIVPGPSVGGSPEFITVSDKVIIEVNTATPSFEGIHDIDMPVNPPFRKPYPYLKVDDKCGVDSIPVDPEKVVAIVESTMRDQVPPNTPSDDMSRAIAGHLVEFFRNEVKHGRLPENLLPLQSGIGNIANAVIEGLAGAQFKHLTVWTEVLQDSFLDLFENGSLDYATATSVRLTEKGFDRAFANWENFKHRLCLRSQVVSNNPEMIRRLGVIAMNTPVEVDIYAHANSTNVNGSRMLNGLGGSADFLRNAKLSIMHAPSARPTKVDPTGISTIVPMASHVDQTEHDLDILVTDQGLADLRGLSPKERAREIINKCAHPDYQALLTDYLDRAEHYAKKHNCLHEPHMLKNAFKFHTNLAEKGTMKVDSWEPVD

This is a selection: effects in other tests are not listed, and their absence says nothing.

The target of the test is Acetyl-CoA Hydrolase from S. cerevisiae (Saccharomyces cerevisiae, UniProt P32316). Put plainly: Chemical modification of the enzyme, dialysis, then radioactive assay. Format: biochemical.

Turning to `O=[N+]([O-])c1cc([N+](=O)[O-])c(S(=O)(=O)O)c([N+](=O)[O-])c1`, the “effect on enzyme activity (in words)” value (1 mM) is “no effect” and the “effect on enzyme activity (in words)” value (10 mM) is “partial inactivation”.
